# Laboratory results reported in patent US20250361280A1 (Protagonist Therapeutics, Inc., priority 2022, published 2025).
# Experiments:
# ferroportin [1] = target: T1, ferroportin (Homo sapiens, UniProt Q9NP59); test: T47D internalization assay in presence of mouse serum albumin; format: cell-based; parameters: a human breast carcinoma adherent cell line which endogenously expresses ferroportin; host or cells: T47D; conditions: T47D cells, 0.5% mouse serum albumin, 1 hr incubation
# T1 sequence (Q9NP59 1-571): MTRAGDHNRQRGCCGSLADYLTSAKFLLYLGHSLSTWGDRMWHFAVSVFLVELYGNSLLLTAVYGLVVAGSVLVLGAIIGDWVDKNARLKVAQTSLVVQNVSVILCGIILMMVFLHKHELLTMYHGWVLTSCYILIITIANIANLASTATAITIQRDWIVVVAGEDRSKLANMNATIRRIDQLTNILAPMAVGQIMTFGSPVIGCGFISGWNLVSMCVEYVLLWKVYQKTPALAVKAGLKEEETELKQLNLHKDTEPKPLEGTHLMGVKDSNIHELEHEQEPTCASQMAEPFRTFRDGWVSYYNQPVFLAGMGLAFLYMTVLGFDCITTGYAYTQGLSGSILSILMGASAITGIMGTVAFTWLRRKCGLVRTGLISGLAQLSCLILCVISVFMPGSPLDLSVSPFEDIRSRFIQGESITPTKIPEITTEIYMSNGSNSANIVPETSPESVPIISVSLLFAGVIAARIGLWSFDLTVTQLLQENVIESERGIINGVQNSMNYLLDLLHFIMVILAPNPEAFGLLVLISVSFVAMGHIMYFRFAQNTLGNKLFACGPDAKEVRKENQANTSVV
# How it was run: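 T47D cells exposed 1 h to 10-point peptide dilutions (top ~5 μM) preincubated 30 min with 0.5% mouse serum albumin. Then 200 nM AF647-labelled ferroportin-binding detection peptide for 2 h. Flow cytometry MFI of live singlets, IC50 by 4-parameter fit.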
# ferroportin [2] = target: T1, ferroportin; test: FPN internalization assay (FPN activity assay), loss of ferroportin-GFP fluorescence; format: cell-based
# [3] = Table 1D, read-out: IC50: T47D MSA
# [4] = Table 1D, HEK293 cells stably expressing ferroportin-GFP, compound at least 18 hours, read-out: IC50: FPN
# [5] = Table 1C, read-out: IC50: T47D MSA
# [6] = Table 1C, HEK293 cells stably expressing ferroportin-GFP, compound at least 18 hours, read-out: IC50: FPN
IC50 (ferroportin [1]; [3]),IC50 (ferroportin [2]; [4]),SMILES,other results
> 500 nM,> 500 nM,COC(=O)CCC(CCCC(C)C)C(=O)N[C@H](C(=O)N[C@@H](Cc1c[nH]cn1)C(=O)N[C@H](C(=O)N1CCC[C@H]1C(=O)N(C)[C@@H](CCCCN)C(=O)NCCCCc1ccccc1)C(c1ccccc1)c1ccccc1)[C@@H](C)O (some centres unmarked) [compound 178],–
0.1 to 10 nM,1 to 30 nM,CCCCCCCCCCCCCCCC(=O)NCC[N+](C)(C)CC(=O)NCCOCCOCCOCCOCCC(=O)NCCCC[C@H](NC(=O)[C@@H]1CCCN1C(=O)[C@@H](NC(=O)[C@H](Cc1c[nH]cn1)NC(=O)[C@@H](NC(=O)[C@H](CCC(=O)O)NC(=O)CC(C)C)[C@@H](C)O)C(c1ccccc1)c1ccccc1)C(=O)N[C@@H](Cc1ccccc1)C(=O)NCCCCC [compound 184],–
100 to 500 nM,30 to 100 nM,CC(C)CC(=O)N[C@@H](CCC(=O)O)C(=O)N1C[C@@H]2C[C@H]1C(=O)N[C@@H](Cc1c[nH]cn1)C(=O)N[C@@H](C(c1ccccc1)c1ccccc1)C(=O)N1C[C@@H](C[C@H]1C(=O)N[C@@H](CCCC[N+](C)(C)C)C(=O)NCCCCc1ccccc1)SS2 [compound 167],–
0.1 to 10 nM,1 to 30 nM,CCCCCCCCCCCCCCCC(=O)NCCOCCOCCOCCOCCOCCOCCOCCOCCC(=O)NCCCC[C@H](NC(=O)[C@@H]1CCCN1C(=O)[C@@H](NC(=O)[C@H](Cc1c[nH]cn1)NC(=O)[C@@H](NC(=O)[C@H](CCC(=O)O)NC(=O)CC(C)C)[C@@H](C)O)C(c1ccccc1)c1ccccc1)C(=O)NCCCCCc1ccccc1 [compound 118],–
10 to 100 nM,1 to 30 nM,CCCCCCCCCCCCCCCC(=O)NCC[N+](C)(C)CC(=O)NCCCC[C@H](NC(=O)[C@@H]1CCCN1C(=O)[C@@H](NC(=O)[C@H](Cc1c[nH]cn1)NC(=O)[C@@H](NC(=O)[C@H](CCC(=O)O)NC(=O)CC(C)C)[C@@H](C)O)C(c1ccccc1)c1ccccc1)C(=O)N[C@@H](Cc1ccccc1)C(=O)NCCCCC [compound 185],–
> 500 nM,> 500 nM,"COC(=O)CCC(CCCC(C)C)C(=O)N[C@H](C(=O)N[C@@H](Cc1c[nH]cn1)C(=O)N[C@H](C(=O)N1CCC[C@H]1C(=O)N(C)[C@@H](CCCC[N+](C)(C)C)C(=O)NCCCCc1ccccc1)C(c1ccccc1)c1ccccc1)[C@@H](C)O (single isomer, unassigned) [compound 165]",–
100 to 500 nM,30 to 100 nM,CC(C)CC(=O)N[C@@H](CCC(=O)O)C(=O)N[C@H](C(=O)N[C@@H](Cc1c[nH]cn1)C(=O)N[C@H](C(=O)N1CCC[C@H]1C(=O)N[C@@H](CCCCNC(=O)CCCCC[N+](C)(C)C)C(=O)NCCCCc1ccccc1)C(c1ccccc1)c1ccccc1)[C@@H](C)O [compound 156],–
0.1 to 10 nM,1 to 30 nM,CCCCCCCCCCCCCCCC(=O)NCC[N+](C)(C)CC(=O)NCCOCCOCCOCCOCCOCCOCCOCCOCCOCCOCCOCCOCCC(=O)NCCCC[C@H](NC(=O)[C@@H]1CCCN1C(=O)[C@@H](NC(=O)[C@H](Cc1c[nH]cn1)NC(=O)[C@@H](NC(=O)[C@H](CCC(=O)O)NC(=O)CC(C)C)[C@@H](C)O)C(c1ccccc1)c1ccccc1)C(=O)N[C@@H](Cc1ccccc1)C(=O)NCCCCC [compound 183],–
> 500 nM,> 500 nM,CC(C)CC(=O)N[C@@H](CCC(=O)O)C(=O)N[C@H](C(=O)N[C@@H](Cc1c[nH]cn1)C(=O)N[C@H](C(=O)N1CCC[C@H]1C(=O)N[C@H](CCCCN)C(=O)N(CCC(=O)O)C(CCCCCCC(=O)O)C(N)=O)C(c1ccccc1)c1ccccc1)[C@@H](C)O (some centres unmarked) [compound 141],–
100 to 500 nM,> 500 nM,CC(C)CC(=O)N[C@@H](CCC(=O)O)C(=O)N[C@H](C(=O)N[C@@H](Cc1c[nH]cn1)C(=O)N[C@H](C(=O)N1CCC[C@H]1C(=O)N[C@H](CCCCN)C(=O)N(CCCN)C(CCCCCCC(=O)O)C(N)=O)C(c1ccccc1)c1ccccc1)[C@@H](C)O (some centres unmarked) [compound 142],–
> 500 nM,> 500 nM,CCCCCCCCCCCCCCCC(=O)NCCCCCC(=O)NCCCC[C@H](NC(=O)[C@@H]1CSSC[C@H](NC(=O)[C@H](CCC(=O)O)NC(=O)CC(C)C)C(=O)N[C@@H](Cc2c[nH]cn2)C(=O)N[C@@H](C(c2ccccc2)c2ccccc2)C(=O)N1)C(=O)NCCCCc1ccccc1 [compound 194],–

# Continued, compound first:
SMILES,IC50 (ferroportin [1]; [3]),IC50 (ferroportin [2]; [4]),other results
CC(C)CC(=O)N[C@@H](CCC(=O)O)C(=O)N[C@H](C(=O)N[C@@H](Cc1c[nH]cn1)C(=O)N[C@H](C(=O)N1CCC[C@H]1C(=O)N[C@@H](CCCCNC(=O)C[N+](C)(C)CCNC(=O)C[N+](C)(C)CCNC(=O)CCCc1ccc(I)cc1)C(=O)NCCCCCc1ccccc1)C(c1ccccc1)c1ccccc1)[C@@H](C)O [compound 67],10 to 100 nM,30 to 100 nM,–
CCCCCCCCCCCCCCCC(=O)NCC[N+](C)(C)CC(=O)NCCCCCC(=O)NCCCC[C@H](NC(=O)[C@@H]1C[C@H]2CN1C(=O)[C@H](C(c1ccccc1)c1ccccc1)NC(=O)[C@H](Cc1c[nH]cn1)NC(=O)[C@@H](NC(=O)[C@H](CCC(=O)O)NC(=O)CC(C)C)CSS2)C(=O)NCCCCc1ccccc1 [compound 21],–,–,IC50 (ferroportin [1]; [5]): > 500 nM; IC50 (ferroportin [2]; [6]): 30 to 100 nM
CCCCCCCCCCCCCCCC(=O)NCC[N+](C)(C)CC(=O)NCCOCCOCC(=O)NCCOCCOCC(=O)NCCCC[C@H](NC(=O)[C@@H]1CCCN1C(=O)[C@@H](NC(=O)[C@H](Cc1c[nH]cn1)NC(=O)[C@@H](NC(=O)[C@H](CCC(=O)O)NC(=O)CC(C)C)[C@@H](C)O)C(c1ccccc1)c1ccccc1)C(=O)N1CCC(c2ccccc2)CC1 [compound 101],–,–,"IC50 (ferroportin [1]; IC50: T47D MSA (nM, Table 1D)): 0.1 to 10 nM; IC50 (ferroportin [2]): > 500 nM"
CC(C)CC(=O)N[C@@H](CCC(=O)O)C(=O)N[C@H](C(=O)N[C@@H](Cc1c[nH]cn1)C(=O)N[C@H](C(=O)N1CCC[C@H]1C(=O)Nc1ccc(C(=O)N(C)[C@@H](CCCCNC(=O)CCCCCNC(=O)C[N+](C)(C)CCNC(=O)CCCCCCCCCCCCCCCCC(=O)O)C(=O)N[C@@H](Cc2ccc(-c3ccccc3)cc2)C(=O)N[C@H](CCCCN)C(N)=O)cc1)C(c1ccccc1)c1ccccc1)[C@@H](C)O [compound 29],–,–,"IC50 (ferroportin [1]; IC50: T47D MSA, Table 1C): 10 to 100 nM; IC50 (ferroportin [2]): 30 to 100 nM"
CC(C)CC(=O)N[C@@H](CCC(=O)O)C(=O)N[C@H](C(=O)N[C@@H](Cc1c[nH]cn1)C(=O)N[C@H](C(=O)N1CCC[C@H]1C(=O)N[C@@H](CCCCNC(=O)CCOCCOCCOCCOCCNC(=O)[C@H](CN)NC(=O)CCCc1ccc(I)cc1)C(=O)NCCCCCc1ccccc1)C(c1ccccc1)c1ccccc1)[C@@H](C)O [compound 83],0.1 to 10 nM,1 to 30 nM,–
CCCCCCCCCCCCCCCC(=O)NCC[N+](C)(C)CC(=O)NCC[N+](C)(C)CC(=O)NCCCC[C@@H](C(=O)NCCCCCc1ccccc1)N(C)C(=O)[C@@H]1CCCN1C(=O)[C@@H](NC(=O)[C@H](Cc1c[nH]cn1)NC(=O)[C@@H](NC(=O)[C@H](CCC(=O)O)NC(=O)CC(C)C)[C@@H](C)O)C(c1ccccc1)c1ccccc1 [compound 69],10 to 100 nM,1 to 30 nM,–
CCCCCCCCCCCCCCCC(=O)NCC[N+](C)(C)CC(=O)NCCOCCOCC(=O)NCCOCCOCC(=O)NCCCC[C@H](NC(=O)[C@@H]1CCCN1C(=O)[C@@H](NC(=O)[C@H](Cc1c[nH]cn1)NC(=O)[C@@H](NC(=O)[C@H](CCC(=O)O)NC(=O)CC(C)C)[C@@H](C)O)C(c1ccccc1)c1ccccc1)C(=O)NCc1ccc(N2CCOCC2)cc1 [compound 105],0.1 to 10 nM,> 500 nM,–
CC(C)CC(=O)N[C@@H](CCC(=O)O)C(=O)N[C@H](C(=O)N[C@@H](Cc1c[nH]cn1)C(=O)N[C@H](C(=O)N1CCC[C@H]1C(=O)N[C@@H](CCCCNC(=O)CCOCCOCCOCCOCCOCCOCCOCCOCCNC(=O)[C@H](CN)NC(=O)CCCc1ccc(I)cc1)C(=O)NCCCCCc1ccccc1)C(c1ccccc1)c1ccccc1)[C@@H](C)O [compound 81],10 to 100 nM,1 to 30 nM,–
CC(C)CC(=O)N[C@@H](CCC(=O)O)C(=O)N[C@H]1CSSC[C@@H](C(=O)N[C@H](C(=O)N(C)[C@@H](CCCCNC(=O)CCCc2ccc(I)cc2)C(=O)N[C@H](C(=O)N[C@H](CCCCN)C(N)=O)C(c2ccccc2)c2ccccc2)C2CCCCC2)NC(=O)[C@H](C(c2ccccc2)c2ccccc2)NC(=O)[C@H](Cc2c[nH]cn2)NC1=O [compound 63],100 to 500 nM,30 to 100 nM,–
CCCCCCCCCCCCCCCC(=O)NCCCCCC(=O)NCCCC[C@@H](C(=O)NCCCCCc1ccccc1)N(C)C(=O)[C@@H]1CCCN1C(=O)[C@@H](NC(=O)[C@H](Cc1c[nH]cn1)NC(=O)[C@H]([C@@H](C)O)N(C)C(=O)[C@H](CCC(=O)OC)NC(=O)CC(C)C)C(c1ccccc1)c1ccccc1 [compound 16],–,–,IC50 (ferroportin [1]; [5]): 100 to 500 nM; IC50 (ferroportin [2]; [6]): 1 to 30 nM
CCCCCCCCCCCCCCCC(=O)NCC[N+](C)(C)CC(=O)NCC[N+](C)(C)CC(=O)NCCCC[C@H](NC(=O)[C@@H]1CCCN1C(=O)[C@@H](NC(=O)[C@H](Cc1c[nH]cn1)NC(=O)[C@@H](NC(=O)[C@H](CCC(=O)OC)NC(=O)CC(C)C)[C@@H](C)O)C(c1ccccc1)c1ccccc1)C(=O)NCCCCCc1ccccc1 [compound 70],0.1 to 10 nM,1 to 30 nM,–
